Measured values as given in PubChem BioAssay AID1471 (National Center for Advancing Translational Sciences (NCATS), 2008).
Where “and” joins values, the source holds several entries; their conditions need not be identical. Identical values can stand only once. The entries are a selection whose mix differs from that of the whole data set. Calls of active or inactive are those of the source. The call rests on the fitted dose curve; in most records, active means well fitted activation curve with a large enough effect; inconclusive means small, poorly fitted or top-dose-only effect; inactive means no such curve, though single readings can be large or run the other way.

assay: qHTS Multiplex Assay to Identify Dual Action Probes in a Cell Model of Huntington: Cytoprotection (ATP); settings: PC12 HTT-Q103 induced, ATP luminescence, 40 h; at 56.4 µM (top of the series) unless noted;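 further: toxic huntingtin expression switched on by the ecdysone agonist tebufenozide; % of control where 0% means no effect; nearly all actives have a fitted effect of over 45% in size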
From the text: NIH Chemical Genomics Center [NCGC]
NIH Molecular Libraries Probe Production centers Network [MLPCN]
Assay Submitter (PI): Wei Zheng
Huntington's disease is a neurodegenerative disorder caused by a trinucleotide repeat expansion in Exon 1 of the Huntingtin gene. The CAG trinucleotide encodes glutamine and polyglutamine expansions cause cell death in selective areas of the brain. Huntington polyglutamine repeats have the tendency to form aggregates which are observable in later stages of the disease. The exact nature of the aggregates, whether toxic, protective, or insignificant, is unclear.
A stable PC12 cell line containing a gene fusion of Exon 1 of the Huntingtin gene linked to GFP under the control of the inducible ecdysone promoter were used as the cell-based model of Huntington Disease for high throughput screening. Exon 1 of the Huntingtin gene contained an expansion of 103 polyglutamines (Q103) which, when expressed, caused cell death and distinct, bright GFP aggregates. The amount of cell death and the size and intensity of GFP aggregates increased over time and induction level. The cell death were quantified with a measurement of ATP content in the cells. A maximal 40-50% of cell death was observed when the Huntington gene was induced in this cell line.
We optimized this assay in a homogeneous 1536 well format. A quantitative high throughput screen (qHTS) was conducted on the PC12 cells which were induced to express the toxic fusion construct. Small molecules which prevented cell death were identified by using a luminescent ATP quantification method (Perkin Elmer's ATPlite).
PC12 cells stably containing a construct with an ecdysone inducible promoter expressing GFP fused to the exon 1 of HTTQ103 (Huntington protein which containing a 103 ployglutamine expansion) were used.
NCGC Assay Protocol Summary:
Sequence, Parameter, Description
1, Reagent, 5 uL 1500 cells/well 1536 TC treated White clear bottom plate
2, Compound, 23 nL Tebufenozide inducer (100 nM final) to all columns
3, Compound, 23 nL 40 uM to 0.5 nM Libraries
5, Reagent, 5 ul ATPLite cell death assay reagent
6, Detector, 4 sec integration with a Viewlux Luminescent
Media consisted of phenol red free DMEM + 5% equine serum (Hyclone # SH30072.03 ), 5% supplemented Bovine Calf Serum (Hyclone # SH30074.03 ), 1x pen/strep, no G418
Control columns: 1 = DMSO, 2= 2 uM teb dilns (1:1), 4 = 100 nM Teb inducer. Sample columns received 100 nM Teb.

| SMILES | cytoprotection (ATP increase) |
| --- | --- |
| COc1ccc(OP(C)(=O)Nc2ccccn2)cc1 (stereo not given) | inactive: 23.2% |
| CN(C)CCOC(=O)C(O)(c1ccccc1)C1CCCC1 (stereo not given) | inactive: 12.5% |
| O=[N+]([O-])c1cc([N+](=O)[O-])c(Nc2ccccn2)c([N+](=O)[O-])c1 | inactive: -2.92% [at 10 µM] |
| Cc1c(NP(C)(=O)Oc2ccc(C(C)C)cc2)c(=O)n(-c2ccccc2)n1C (stereo not given) | inactive: 9.17% |
| COc1ccccc1OP(C)(=O)Nc1ccc(C)cc1C (stereo not given) | inactive: -20.5% |
| CP(=O)(Nc1ccccn1)Oc1ccccc1 (stereo not given) | inactive: -2.58% |
| CCc1ccc(OP(C)(=O)O)cc1 | inactive: 5.08% |
| O=[N+]([O-])[O-].[NH4+] | inactive: -7.53% |
| O=[N+]([O-])c1ccc2c(c1)C=Nc1ccccc1O2 | inactive: -87.8% |
| Cc1cccc(C)c1OP(C)(N)=O (stereo not given) | inactive: 7.16% [at 10 µM] |
| CC(C)(C)c1ccc(OP(C)(=O)Nc2ccc(SC(F)(F)F)cc2)cc1 (stereo not given) | inactive: 14.2% [at 10 µM] |
| Cc1ccc(NP(C)(=O)Oc2ccccc2)c(C)c1 (stereo not given) | inactive: 14.1% |
| COc1ccccc1OP(C)(=O)Nc1ccc(C)cc1 (stereo not given) | inactive: -3.95% [at 10 µM] |
| Cc1cc(C)cc(OP(C)(N)=O)c1 (stereo not given) | inactive: -6.66% [at 10 µM] |
| COc1ccc(OP(C)(=O)Nc2cccc(F)c2)cc1 (stereo not given) | inactive: -9.43% |
| COc1ccccc1OP(C)(=O)Nc1cc(Cl)ccc1C (stereo not given) | inactive: 24.9% [at 10 µM] |
| N1=C(c2nnc(-c3nn[nH]n3)nn2)NNN1 | inactive: 9.36% [at 10 µM] |
| CP(=S)(Nn1cnnc1)Oc1ccccc1 (stereo not given) | inactive: 0.434% |
| CP(=O)(Nc1ccccc1Br)Oc1ccccc1 (stereo not given) | inactive: 7.57% [at 10 µM] |
| COc1ccccc1OP(C)(=O)Nc1ccccc1 (stereo not given) | inactive: 15.2% |
| CP(=O)(Oc1ccccc1)OC(c1ccccc1)C(F)(F)F (stereo not given) | inactive: 15.1% [at 10 µM] |
| Cc1cccc(C)c1OP(C)(=O)Nc1ccc(SC(F)(F)F)cc1 (stereo not given) | inactive: 26.4% [at 10 µM] |
| CP(=O)(Nc1ccc(SC(F)(F)F)cc1)Oc1ccc(Cl)cc1 (stereo not given) | inactive: -3.36% [at 10 µM] |

| SMILES | cytoprotection (ATP increase) |
| --- | --- |
| Cc1cc(C)cc(OP(C)(=O)Nc2ccc(SC(F)(F)F)cc2)c1 (stereo not given) | inactive: -24.6% [at 10 µM] |
| CCc1ccc(OP(C)(=O)N2CCN(c3ccc([N+](=O)[O-])cc3)CC2)cc1 (stereo not given) | inactive: 5.97% [at 10 µM] |
| CP(=O)(NC(=O)Nc1ccccc1)Oc1ccccc1 (stereo not given) | inactive: 18.7% |
| CN(C)CCS | inactive: 3.02% |
| CCOC(=O)c1ccc(NP(C)(=O)Oc2ccc(OC)cc2)cc1 (stereo not given) | inactive: 33.5% [at 10 µM] |
| CCOP(C)(=S)SCC(=O)NC(C)C(=O)O (stereo not given) | inactive: -23.6% |
| CP(=O)(Nc1ccccn1)Oc1ccc(Cl)cc1 (stereo not given) | inactive: -14.1% |
| O=[N+]([O-])c1cc([N+](=O)[O-])c(-n2nnc3ccccc32)c([N+](=O)[O-])c1 | inactive: -8.97% [at 10 µM] |
| Cc1nc2ccc3ccccc3c2s1.O=[N+]([O-])c1cc([N+](=O)[O-])c(O)c([N+](=O)[O-])c1 | inactive: -3.4% |
| O=[N+]([O-])c1cc([N+](=O)[O-])c(Nc2nnnn2CCO)c([N+](=O)[O-])c1 | inactive: -2.09% [at 10 µM] |
| COc1ccccc1OP(C)(=O)Nc1c(C)cccc1C (stereo not given) | inactive: 0.801% |
| CN1CCCCC1COC(=O)C1(O)c2ccccc2CCc2ccccc21 (stereo not given) | inactive: 5.93% [at 0.074 µM] |
| CCCOc1ccc(NP(C)(=O)Oc2ccc(Cl)cc2)cc1 (stereo not given) | inactive: -8.71% [at 10 µM] |
| O=[N+]([O-])c1cccc([N+](=O)[O-])c1 | inactive: 11% and inactive: -25% |
| CC1=NCCc2c1[nH]c1ccccc21.O=[N+]([O-])c1cc([N+](=O)[O-])c(O)c([N+](=O)[O-])c1 | inactive: -7.25% [at 10 µM] |
| Cc1ccc([N+](=O)[O-])cc1[N+](=O)[O-] | inactive: -2.04% |
| COc1ccccc1OP(C)(=O)Nc1cccc(Br)c1 (stereo not given) | inactive: -25.8% [at 10 µM] |
| CCOC(=O)c1ccc(NP(C)(=O)Oc2cc(C)cc(C)c2)cc1 (stereo not given) | inactive: 14.2% [at 10 µM] |
| Cc1cc(C)cc(OP(C)(=O)Nc2ccc(C)cc2C)c1 (stereo not given) | inactive: 5.42% [at 10 µM] |
| Cc1ccc(C)c(NP(C)(=O)Oc2ccccc2)c1 (stereo not given) | inactive: -6.81% |
| CP(=O)(Nc1cccc(Br)c1)Oc1ccccc1 (stereo not given) | inactive: 42.5% [at 10 µM] |
| Cc1cc(C)cc(OP(C)(=O)Nc2ccccn2)c1 (stereo not given) | inactive: 1.93% |
